# Literature values, collected in patent publication US20210037830A1, “PHYTOTOXIC MICRONUTRIENT COMBINATIONS FOR SELECTIVE CONTROL OF INVASIVE PLANT SPECIES” (Edaphix, LLC, priority 2019, published 2021).
# System: humans
# Details: 2005 carcinogen assessment guidelines; cited from earlier work
structure (smiles),measurement,value
OB(O)O [boric acid],U.S. EPA carcinogenicity classification,not likely to be carcinogenic to humans
